91 molecules from PubChem BioAssay AID2462 (Broad Institute, 2010) can be followed below.

Each structure is given as a SMILES string. Only a part is listed here, and it is no random draw. Activity calls are given as the source filed them.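 Rule for the calls: active = over half of replicate activation scores above 10%, or exactly half above 10 with the replicate mean above 10; inconclusive = replicate mean below 10 yet half the replicates above 10; inactive = over half of replicates below 10.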

The test can be described thus: inducers of caspase signal in A1-primed MEFs – cell-based, luminescence, HTS, A1 inhibitor project, primary screen (AID 2462). Conditions: MEF A1-2A-BIM cells, Caspase-Glo 3/7 luminescence, 3 h; active compounds read high; percent of clofoctol response, vehicle zero; concentration not given here.
As for `O=[N+]([O-])c1cc([N+](=O)[O-])c(-c2cnn(-c3ccccc3)c2)c([N+](=O)[O-])c1`, the caspase activation is inactive: 0.279%.
In the case of `COc1ccccc1CNC(=O)COC(=O)C(O)(c1ccccc1)c1ccccc1`, the caspase activation was inactive: 0.83%.
Take `CC(C)/C=N\N=C(\N)N[N+](=O)[O-]`: the caspase activation was inactive: -0.411%.
Next, `CN(C(=O)Cc1ccc(Cl)c(Cl)c1)[C@@H]1CCCC[C@H]1N1CCCC1`: inactive: 0.403%; `Cc1nc2ccc3ccccc3c2s1.O=[N+]([O-])c1cc([N+](=O)[O-])c(O)c([N+](=O)[O-])c1`: inactive: 0.476%.
Consider `CC1(CBr)Cn2c(nc3ccccc3c2=O)S1` (stereo unspecified), for which the caspase activation was inactive: 1.1%.
Take `O=[As](O)(c1ccccc1Br)c1ccccc1Br`: the caspase activation was inactive: 0.557%.
Next, `O=[N+]([O-])c1cc([N+](=O)[O-])c(-n2nnc3ccccc32)c([N+](=O)[O-])c1`: inactive: 0.147%.
Next, `CCOP(=O)(NC(=NC(C)c1ccccc1)NC(C)c1ccccc1)OCC` (stereo unspecified): inactive: -1.24%; `O=P1(Nc2ccccn2)COc2ccccc2OC1`: inactive: 0.027%; `CCC1=CC2Cc3nc4ccc(Cl)cc4c(N)c3C(C1)C2` (stereo unspecified): inactive: 0.314%.
As to `CCOP(=O)(Nc1ccc(C)cn1)OCC`, the caspase activation is inactive: 0.287%.
The value for `CN(CCCl)Cc1cc(Cl)c(NC2=NCCN2)c(Cl)c1` was inactive: 0.557%.
The value for `CC(C)(C)C(=O)NC(Sc1ncccn1)C(Cl)(Cl)Cl` (stereo unspecified) was inactive: 1.5%; that for `Clc1n[nH]nc1-c1nn[nH][15n]1` was inactive: -0.15%; that for `COc1ccccc1OP(C)(=O)Nc1c(C)cccc1C` (stereo unspecified) was inactive: -0.312%.
Consider `CN1CCCCC1COC(=O)C1(O)c2ccccc2CCc2ccccc21` (stereo unspecified), for which the caspase activation is inactive: -0.573%.
Next, `O=P1(Nc2ncccn2)COc2ccccc2OC1`: inactive: 0.0364%; `CCCOc1ccc(NP(C)(=O)Oc2ccc(Cl)cc2)cc1` (stereo unspecified): inactive: -0.369%; `CP(=O)(Nc1ccc(SC(F)(F)F)cc1)Oc1ccccc1` (stereo unspecified): inactive: -0.134%.
On to `Nc1cccc([As](=O)(O)c2ccccc2)c1`, for which the caspase activation is inactive: -0.389%.
As to `O=[As](O)(c1cccs1)c1cccs1`, the caspase activation is inactive: -0.174%.
In the case of `Cc1ccc(OCC(=O)OC2CN3CCC2CC3)cc1` (stereo unspecified), the caspase activation is inactive: -0.531%.
Next, `O=P1(Nc2ccc(Br)cn2)COc2ccccc2OC1`: inactive: 0.211%.
In the case of `NS(=O)(=O)c1cccc(NC(=O)COC(=O)C(O)(c2ccccc2)c2ccccc2)c1`, the caspase activation was inactive: 0.628%.
The value for `CC1CCC(C(C)C)C(OP(=O)(Nc2ccccn2)c2ccccc2)C1` (stereo unspecified) was inactive: 0.792%; that for `Cc1ccc(C(=O)OC2CN3CCC2CC3)cc1` (stereo unspecified) was inactive: 1.91%.
The value for `Cc1nn(-c2ccccc2)c2c1P(=O)(N1CCOCC1)N(C)C(c1ccccc1)=N2` (stereo unspecified) was inactive: 0.367%; that for `COc1cc(C2NCCC3(OCCO3)C2(C)C)cc(OC)c1OC.O=[N+]([O-])c1cc([N+](=O)[O-])c(O)c([N+](=O)[O-])c1` (stereo unspecified) was inactive: 0.711%.
Consider `CCOC(=O)C(CC)C1=NC(C)(C)Cc2ccccc21.O=[N+]([O-])c1cc([N+](=O)[O-])c(O)c([N+](=O)[O-])c1` (stereo unspecified), for which the caspase activation is inactive: 0.802%.
Next, `CN(C)C1(CNC(=O)c2ccc(S(C)(=O)=O)cc2)CCCCC1`: inactive: 0.414%.
The value for `CC1=C2N=C(C=C3N=C(C(C)=C4[N-][C@@](C)([C@@H]5N=C1[C@](C)(CCC(=O)NC[C@@H](C)OP(=O)([O-])O[C@H]1[C@@H](O)[C@@H](n6cnc7cc(C)c(C)cc76)O[C@@H]1CO)[C@H]5CC(N)=O)[C@@](C)(CC(N)=O)[C@@H]4CCC(N)=O)[C@@](C)(CC(N)=O)[C@@H]3CCC(N)=O)C(C)(C)[C@@H]2CCC(N)=O.[C-]#N.[Co+3]` was inactive: -1.06%.
On to `O=[N+]([O-])c1cc([N+](=O)[O-])c(Nc2nnnn2CCO)c([N+](=O)[O-])c1`, for which the caspase activation is inactive: -1.84%.
Next, `O=C(/C=C/c1ccccc1)OC1CN2CCC1CC2` (stereo unspecified): inactive: -0.586%; `NC(=O)Nc1ccc([As](=O)(O)O)cc1`: inactive: 0.797%; `CCOP1(=S)c2c(C)nn(CCC#N)c2N=C(c2ccc(F)cc2)N1C` (stereo unspecified): inactive: -0.000755%.
Next, `CN(C(=O)Cc1ccccc1)[C@@H]1CC[C@]2(CCCO2)C[C@H]1N1CCCC1`: inactive: 0.279%; `N#CCCN(C(=O)COC(=O)C(O)(c1ccccc1)c1ccccc1)c1ccc(F)cc1`: inactive: 0.38%; `CC1=NCCc2c1[nH]c1ccccc21.O=[N+]([O-])c1cc([N+](=O)[O-])c(O)c([N+](=O)[O-])c1`: inactive: 0.698%.
Next, `CN(C(=O)Cc1ccc(Cl)c(Cl)c1)[C@H]1CC[C@@]2(CCCO2)C[C@@H]1N1CCCC1`: inactive: -0.481%.
For the molecule `O=[N+]([O-])c1ccc2c(c1)nnn2O`, the caspase activation was inactive: 0.125%.
Next, `CN(C)C(=O)c1cc([N+](=O)[O-])cc2c1-c1c(cc([N+](=O)[O-])cc1[N+](=O)[O-])C2=O`: inactive: -0.015%; `O=P(Nc1nccs1)(Oc1ccccc1)Oc1ccccc1`: inactive: 0.284%; `O=P(Nc1nccs1)(c1ccccc1)c1nc2ccccc2s1` (stereo unspecified): inactive: -0.602%.
The value for `CCOP1(=S)c2c(C)nn(CCC#N)c2N=C(c2ccccc2F)N1C` (stereo unspecified) was inactive: 0.616%.
The value for `O=C(O)c1cccc(Nc2c([N+](=O)[O-])cc([N+](=O)[O-])cc2[N+](=O)[O-])c1` was inactive: 0.815%.
Take `CS(=O)(=O)c1cc([N+](=O)[O-])c2no[n+]([O-])c2c1`: the caspase activation was inactive: -0.418%.
As for `Nc1ccccc1[As](=O)(O)c1ccccc1`, the caspase activation is inactive: 0.0215%.
The value for `O=C(O)COc1ccc([As](=O)(O)O)cc1[N+](=O)[O-]` was inactive: 1.36%; that for `Nc1cccc2c([As](=O)(O)O)cccc12` was inactive: -0.546%; that for `Cc1ccc(NCCc2c([N+](=O)[O-])cc([N+](=O)[O-])cc2[N+](=O)[O-])cc1` was inactive: -0.0831%.
Next, `Cc1cc(C)cc(OP(C)(=O)Nc2ccccn2)c1` (stereo unspecified): inactive: 0.429%; `CP(=O)(Nc1cccc(Br)c1)Oc1ccccc1` (stereo unspecified): inactive: 1.41%.
As to `Cc1ccc(C)c(NP(C)(=O)Oc2ccccc2)c1` (stereo unspecified), the caspase activation was inactive: 0.352%.
The value for `CCCOP(=S)(Nc1nc(N)cc(=O)[nH]1)OCCC` was inactive: -0.347%.
Next, `CCOP(=O)(Nc1cccc2ccccc12)OCC`: inactive: 0.796%; `O=C(OC1CN2CCC1CC2)c1ccc(Cl)cc1` (stereo unspecified): inactive: -1.02%; `CS(=O)(=O)c1ccc(Cl)c(NC(=O)COC(=O)C(O)(c2ccccc2)c2ccccc2)c1`: inactive: -0.231%.
For the molecule `COc1ccccc1OP(C)(=O)Nc1cccc(Br)c1` (stereo unspecified), the caspase activation is inactive: 0.222%.
For the molecule `O=[As](O)(O)c1cccnc1`, the caspase activation is inactive: 0.566%.
As to `COc1cc(C(=O)NCC2(N3CCOCC3)CCCCC2)cc(Cl)c1OC(C)C`, the caspase activation was inactive: 0.0148%.
In the case of `Cc1cc(C)cc(OP(C)(=O)Nc2ccc(C)cc2C)c1` (stereo unspecified), the caspase activation is inactive: 0.118%.
Next, `Cc1cccc(OCC(=O)OC2CN3CCC2CC3)c1` (stereo unspecified): inactive: 0.583%; `O=[As](O)(c1cccc(O)c1)c1cccc(O)c1`: inactive: -0.642%.
The value for `CCOC(=O)c1ccc(NP(C)(=O)Oc2cc(C)cc(C)c2)cc1` (stereo unspecified) was inactive: -0.155%; that for `COc1ccc(N/C(=N/P(=O)(N2CCOCC2)N2CCOCC2)N2CCOCC2)cc1` was inactive: -0.374%; that for `Cc1c2c(nc3ccccc13)SC(C(Cl)Cl)C2` (stereo unspecified) was inactive: -1.05%.
Take `CCN(CC)CCCOC(=O)C(O)(c1ccccc1)c1ccccc1`: the caspase activation is inactive: 0.078%.
The value for `Cc1cc(=O)[nH]c(N[N+](=O)[O-])n1` was inactive: -0.259%; that for `O=C(OC1CN2CCC1CC2)C12CC3CC(CC(C3)C1)C2` (stereo unspecified) was inactive: -0.106%; that for `COc1cc(I)ccc1[As](=O)(O)O` was inactive: 0.591%.
With `COc1ccc2nc(NP(=O)(c3ccccc3)c3ccccc3)sc2c1`, the caspase activation is inactive: 0.104%.
Regarding `ClCCSc1nnc(-c2cccnc2)o1`, the caspase activation is inactive: -1.12%.
The value for `CCOC(=O)c1ccc(NP(C)(=O)Oc2ccccc2)cc1` (stereo unspecified) was inactive: -0.588%; that for `CC(C)c1ccc(OP(=O)(Nc2ccccn2)Oc2ccccc2F)cc1` (stereo unspecified) was inactive: -0.276%; that for `Cc1ccc(NP(C)(=O)Oc2ccccc2)c(C)c1` (stereo unspecified) was inactive: -0.408%.
For the molecule `COc1ccccc1OP(C)(=O)Nc1ccc(C)cc1` (stereo unspecified), the caspase activation was inactive: 1.05%.
Turning to `COc1ccc(OP(C)(=O)Nc2cccc(F)c2)cc1` (stereo unspecified), the caspase activation was inactive: 0.241%.
`O=[N+]([O-])c1cc([N+](=O)[O-])c(-c2ccn[nH]2)s1`: the caspase activation is inactive: 0.149%.
In the case of `COc1ccccc1OP(C)(=O)Nc1cc(Cl)ccc1C` (stereo unspecified), the caspase activation is inactive: -0.285%.
Next, `CC(C)NC(=O)NP(=O)(Oc1ccccc1)Oc1ccccc1`: inactive: -0.6%; `CCN(CC)C(=S)SC(NC=O)C(Cl)(Cl)Cl` (stereo unspecified): inactive: 0.614%; `Cc1cc(C)cc(OP(C)(N)=O)c1` (stereo unspecified): inactive: -0.0787%.
The value for `O=[N+]([O-])c1cc([N+](=O)[O-])c(Nc2cccnc2)c([N+](=O)[O-])c1` was inactive: -0.897%.
Next, `COc1cc(C(=O)NCC2(N3CCOCC3)CCCCC2)ccc1OCC(C)C`: inactive: -2.59%; `C[As](=O)(O)c1cccc(C(=O)O)c1`: inactive: -0.106%; `O=[As](O)(c1ccc(O)cc1)c1ccccc1O`: inactive: -0.784%.
As to `Cc1cccc(C)c1OP(C)(N)=O` (stereo unspecified), the caspase activation is inactive: -0.531%.
Next, `Cc1ccc(OP(=O)(Nc2ccc([N+](=O)[O-])cn2)Oc2ccc(C)cc2)cc1`: inactive: 3.06%.
For `CC(C)(C)c1ccc(OP(C)(=O)Nc2ccc(SC(F)(F)F)cc2)cc1` (stereo unspecified), the caspase activation was inactive: 0.534%.
The value for `O=[N+]([O-])c1ccc2c(c1)C=Nc1ccccc1O2` was inactive: -0.114%.
